Data as given in PubChem BioAssay (NCI).
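Results reflect a 48-hour exposure of cells in 96-well plates to compound at five concentrations. The concentration for 50% growth inhibition is given as GI50. TGI is the concentration that stops growth completely.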

Legend:
Experiment in all cases: NCI tumour cell line growth inhibition, 48 h
786-0 renal = tested on: 786-0 renal
A498 renal = tested on: A498 renal
A549 NSCLC = tested on: A549 NSCLC
ACHN renal = tested on: ACHN renal
BT-549 breast = tested on: BT-549 breast
CAKI-1 renal = tested on: CAKI-1 renal
CCRF-CEM leukemia = tested on: CCRF-CEM leukemia
COLO 205 colon = tested on: COLO 205 colon
DU-145 prostate = tested on: DU-145 prostate
EKVX NSCLC = tested on: EKVX NSCLC
HCC-2998 colon = tested on: HCC-2998 colon
HCT-116 colon = tested on: HCT-116 colon
HCT-15 colon = tested on: HCT-15 colon
HOP-62 NSCLC = tested on: HOP-62 NSCLC
HOP-92 NSCLC = tested on: HOP-92 NSCLC
HS 578T breast = tested on: HS 578T breast
HT29 colon = tested on: HT29 colon
IGROV1 ovarian = tested on: IGROV1 ovarian
K-562 leukemia = tested on: K-562 leukemia
KM12 colon = tested on: KM12 colon
LOX IMVI melanoma = tested on: LOX IMVI melanoma
M14 melanoma = tested on: M14 melanoma
MCF7 breast = tested on: MCF7 breast
MDA-MB-231 breast = tested on: MDA-MB-231 breast
MDA-MB-435 = tested on: MDA-MB-435
MDA-N = tested on: MDA-N
MOLT-4 leukemia = tested on: MOLT-4 leukemia
NCI-H226 lung = tested on: NCI-H226 lung
NCI-H23 lung = tested on: NCI-H23 lung
NCI-H522 lung = tested on: NCI-H522 lung
NCI/ADR-RES ovarian = tested on: NCI/ADR-RES ovarian
OVCAR-3 ovarian = tested on: OVCAR-3 ovarian
OVCAR-4 ovarian = tested on: OVCAR-4 ovarian
OVCAR-5 ovarian = tested on: OVCAR-5 ovarian
OVCAR-8 ovarian = tested on: OVCAR-8 ovarian
PC-3 prostate = tested on: PC-3 prostate
RPMI-8226 leukemia = tested on: RPMI-8226 leukemia
SF-268 CNS = tested on: SF-268 CNS
SF-295 CNS = tested on: SF-295 CNS
SF-539 CNS = tested on: SF-539 CNS
SK-MEL-2 melanoma = tested on: SK-MEL-2 melanoma
SK-MEL-28 melanoma = tested on: SK-MEL-28 melanoma
SK-MEL-5 melanoma = tested on: SK-MEL-5 melanoma
SK-OV-3 ovarian = tested on: SK-OV-3 ovarian
SN12C renal = tested on: SN12C renal
SNB-19 CNS = tested on: SNB-19 CNS
SR leukemia = tested on: SR leukemia
SW-620 colon = tested on: SW-620 colon
T-47D breast = tested on: T-47D breast
TK-10 renal = tested on: TK-10 renal
U251 CNS = tested on: U251 CNS
UACC-257 melanoma = tested on: UACC-257 melanoma
UACC-62 melanoma = tested on: UACC-62 melanoma
UO-31 renal = tested on: UO-31 renal

Q: How did the GI50 (786-0 renal) turn out when CC(C)(C)C12COC(c3ccc(N)cc3)(OC1)OC2 was run?
A: > 50 µM

Q: And the TGI (786-0 renal)?
A: > 50 µM

Q: And the GI50 (A498 renal)?
A: > 50 µM

Q: And the TGI (A498 renal)?
A: > 50 µM

Q: What about the GI50 (A549 NSCLC) of the same compound?
A: > 50 µM

Q: And the TGI (A549 NSCLC)?
A: > 50 µM

Q: What about the GI50 (ACHN renal) of the same compound?
A: > 50 µM

Q: And the TGI (ACHN renal)?
A: > 50 µM

Q: And the GI50 (BT-549 breast)?
A: > 50 µM

Q: What about the TGI (BT-549 breast) of the same compound?
A: > 50 µM

Q: And the GI50 (CAKI-1 renal)?
A: > 50 µM

Q: And the TGI (CAKI-1 renal)?
A: > 50 µM

Q: What about the GI50 (CCRF-CEM leukemia) of the same compound?
A: > 50 µM

Q: And the TGI (CCRF-CEM leukemia)?
A: > 50 µM

Q: And the GI50 (COLO 205 colon)?
A: > 50 µM

Q: And the TGI (COLO 205 colon)?
A: > 50 µM

Q: And the GI50 (DU-145 prostate)?
A: > 50 µM

Q: What about the TGI (DU-145 prostate) of the same compound?
A: > 50 µM

Q: And the GI50 (EKVX NSCLC)?
A: > 50 µM

Q: What about the TGI (EKVX NSCLC) of the same compound?
A: > 50 µM

Q: And the GI50 (HCC-2998 colon)?
A: > 50 µM

Q: What about the TGI (HCC-2998 colon) of the same compound?
A: > 50 µM

Q: And the GI50 (HCT-116 colon)?
A: > 50 µM

Q: And the TGI (HCT-116 colon)?
A: > 50 µM

Q: And the GI50 (HCT-15 colon)?
A: > 50 µM

Q: And the TGI (HCT-15 colon)?
A: > 50 µM

Q: What about the GI50 (HOP-62 NSCLC) of the same compound?
A: > 50 µM

Q: What about the TGI (HOP-62 NSCLC) of the same compound?
A: > 50 µM

Q: And the GI50 (HOP-92 NSCLC)?
A: 8.53 µM

Q: What about the TGI (HOP-92 NSCLC) of the same compound?
A: > 50 µM

Q: What about the GI50 (HS 578T breast) of the same compound?
A: 8.32 µM

Q: And the TGI (HS 578T breast)?
A: 19.5 µM

Q: What about the GI50 (HT29 colon) of the same compound?
A: > 50 µM

Q: What about the TGI (HT29 colon) of the same compound?
A: > 50 µM

Q: What about the GI50 (IGROV1 ovarian) of the same compound?
A: > 50 µM

Q: What about the TGI (IGROV1 ovarian) of the same compound?
A: > 50 µM

Q: What about the GI50 (K-562 leukemia) of the same compound?
A: > 50 µM

Q: And the TGI (K-562 leukemia)?
A: > 50 µM

Q: What about the GI50 (KM12 colon) of the same compound?
A: > 50 µM

Q: What about the TGI (KM12 colon) of the same compound?
A: > 50 µM

Q: And the GI50 (LOX IMVI melanoma)?
A: > 50 µM

Q: And the TGI (LOX IMVI melanoma)?
A: > 50 µM

Q: And the GI50 (M14 melanoma)?
A: > 50 µM

Q: And the TGI (M14 melanoma)?
A: > 50 µM

Q: What about the GI50 (MCF7 breast) of the same compound?
A: > 50 µM

Q: And the TGI (MCF7 breast)?
A: > 50 µM

Q: And the GI50 (MDA-MB-231 breast)?
A: > 50 µM

Q: And the TGI (MDA-MB-231 breast)?
A: > 50 µM

Q: And the GI50 (MDA-MB-435)?
A: > 50 µM

Q: What about the TGI (MDA-MB-435) of the same compound?
A: > 50 µM

Q: What about the GI50 (MDA-N) of the same compound?
A: > 50 µM

Q: And the TGI (MDA-N)?
A: > 50 µM

Q: What about the GI50 (MOLT-4 leukemia) of the same compound?
A: > 50 µM

Q: What about the TGI (MOLT-4 leukemia) of the same compound?
A: > 50 µM

Q: What about the GI50 (NCI-H226 lung) of the same compound?
A: > 50 µM

Q: And the TGI (NCI-H226 lung)?
A: > 50 µM

Q: And the GI50 (NCI-H23 lung)?
A: > 50 µM

Q: What about the TGI (NCI-H23 lung) of the same compound?
A: > 50 µM

Q: What about the GI50 (NCI-H522 lung) of the same compound?
A: 7.22 µM

Q: What about the TGI (NCI-H522 lung) of the same compound?
A: 14.5 µM

Q: And the GI50 (NCI/ADR-RES ovarian)?
A: > 50 µM

Q: And the TGI (NCI/ADR-RES ovarian)?
A: > 50 µM

Q: What about the GI50 (OVCAR-3 ovarian) of the same compound?
A: > 50 µM

Q: What about the TGI (OVCAR-3 ovarian) of the same compound?
A: > 50 µM

Q: And the GI50 (OVCAR-4 ovarian)?
A: > 50 µM

Q: What about the TGI (OVCAR-4 ovarian) of the same compound?
A: > 50 µM

Q: What about the GI50 (OVCAR-5 ovarian) of the same compound?
A: > 50 µM

Q: And the TGI (OVCAR-5 ovarian)?
A: > 50 µM

Q: And the GI50 (OVCAR-8 ovarian)?
A: > 50 µM

Q: What about the TGI (OVCAR-8 ovarian) of the same compound?
A: > 50 µM

Q: And the GI50 (PC-3 prostate)?
A: > 50 µM

Q: And the TGI (PC-3 prostate)?
A: > 50 µM

Q: What about the GI50 (RPMI-8226 leukemia) of the same compound?
A: > 50 µM

Q: What about the TGI (RPMI-8226 leukemia) of the same compound?
A: > 50 µM

Q: And the GI50 (SF-268 CNS)?
A: 7.01 µM

Q: And the TGI (SF-268 CNS)?
A: 13.9 µM

Q: And the GI50 (SF-295 CNS)?
A: > 50 µM

Q: And the TGI (SF-295 CNS)?
A: > 50 µM

Q: What about the GI50 (SF-539 CNS) of the same compound?
A: > 50 µM

Q: And the TGI (SF-539 CNS)?
A: > 50 µM

Q: And the GI50 (SK-MEL-2 melanoma)?
A: > 50 µM

Q: And the TGI (SK-MEL-2 melanoma)?
A: > 50 µM

Q: What about the GI50 (SK-MEL-28 melanoma) of the same compound?
A: > 50 µM

Q: What about the TGI (SK-MEL-28 melanoma) of the same compound?
A: > 50 µM

Q: And the GI50 (SK-MEL-5 melanoma)?
A: > 50 µM

Q: And the TGI (SK-MEL-5 melanoma)?
A: > 50 µM

Q: And the GI50 (SK-OV-3 ovarian)?
A: > 50 µM

Q: And the TGI (SK-OV-3 ovarian)?
A: > 50 µM

Q: What about the GI50 (SN12C renal) of the same compound?
A: > 50 µM

Q: What about the TGI (SN12C renal) of the same compound?
A: > 50 µM

Q: What about the GI50 (SNB-19 CNS) of the same compound?
A: > 50 µM

Q: What about the TGI (SNB-19 CNS) of the same compound?
A: > 50 µM

Q: What about the GI50 (SR leukemia) of the same compound?
A: > 50 µM

Q: What about the TGI (SR leukemia) of the same compound?
A: > 50 µM

Q: And the GI50 (SW-620 colon)?
A: > 50 µM

Q: And the TGI (SW-620 colon)?
A: > 50 µM

Q: What about the GI50 (T-47D breast) of the same compound?
A: > 50 µM

Q: And the TGI (T-47D breast)?
A: > 50 µM

Q: What about the GI50 (TK-10 renal) of the same compound?
A: > 50 µM

Q: And the TGI (TK-10 renal)?
A: > 50 µM

Q: And the GI50 (U251 CNS)?
A: > 50 µM

Q: What about the TGI (U251 CNS) of the same compound?
A: > 50 µM

Q: What about the GI50 (UACC-257 melanoma) of the same compound?
A: > 50 µM

Q: What about the TGI (UACC-257 melanoma) of the same compound?
A: > 50 µM

Q: What about the GI50 (UACC-62 melanoma) of the same compound?
A: > 50 µM

Q: What about the TGI (UACC-62 melanoma) of the same compound?
A: > 50 µM

Q: And the GI50 (UO-31 renal)?
A: > 50 µM

Q: What about the TGI (UO-31 renal) of the same compound?
A: > 50 µM
